The results in this text go back to US20260060982A1, “USE OF BTK INHIBITOR AND SINGLE-DOSE DRUG” (HUBEI BIO-PHARMACEUTICAL INDUSTRIAL TECHNOLOGICAL INSTITUTE …, priority 2023, published 2026).

Protein sequences, listed by entry. Tags and fused reporters are not part of them. Lines headed by an entry give the natural chain unless they say otherwise; changes in a name come on top.
UniProt Q06187: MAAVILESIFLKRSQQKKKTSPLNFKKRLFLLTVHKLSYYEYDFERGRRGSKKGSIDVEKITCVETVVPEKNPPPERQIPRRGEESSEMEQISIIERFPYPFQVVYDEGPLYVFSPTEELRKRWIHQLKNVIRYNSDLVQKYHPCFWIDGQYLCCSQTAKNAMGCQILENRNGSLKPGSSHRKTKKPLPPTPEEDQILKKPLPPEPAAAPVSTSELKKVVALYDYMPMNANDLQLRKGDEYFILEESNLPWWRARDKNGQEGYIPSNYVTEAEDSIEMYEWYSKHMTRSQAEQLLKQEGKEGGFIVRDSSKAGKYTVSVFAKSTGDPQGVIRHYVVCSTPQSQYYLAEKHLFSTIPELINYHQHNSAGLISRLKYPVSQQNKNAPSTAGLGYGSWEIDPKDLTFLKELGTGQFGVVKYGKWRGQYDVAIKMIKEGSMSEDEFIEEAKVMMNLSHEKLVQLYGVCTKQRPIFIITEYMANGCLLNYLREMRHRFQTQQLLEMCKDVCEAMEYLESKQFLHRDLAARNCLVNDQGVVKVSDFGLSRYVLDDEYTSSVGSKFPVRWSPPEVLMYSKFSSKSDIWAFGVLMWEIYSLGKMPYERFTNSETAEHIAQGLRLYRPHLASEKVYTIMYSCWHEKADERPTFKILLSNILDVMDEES

The structures appear in SMILES notation. pIC50: −log10 of the molar value.

For this assay, the target named is BTK (Homo sapiens, UniProt Q06187). In words: Inhibition of BTK kinase activity (HTRF). The format is biochemical. As for the experimental part:
The specific experimental steps were as follows:
The BTK kinase/peptide mix solution was added to the assay plate at 5 μL per well, and centrifuged at 1000 rpm for 1 min. The assay plate was incubated at 23° C. for 15 min.
C. An ATP solution (3968 μL of 1.33× kinase reaction buffer and […] of 10 mM ATP) was prepared, added to the assay plate at 2.5 μL per well, and centrifuged at 1000 rpm for 1 min. The assay plate was incubated at 23° C. for 90 min.
The assay plate was incubated at 23° C. for 60 min and read on the Envision multilabel reader.
E. IC50 results were analyzed using XLFIT5 (Formula 205) from IDBS.
For orientation: In TR-FRET formats the signal depends on donor and acceptor labels being close together.

Usually pIC50 stands for the IC50 on a negative log10 scale, so that one unit is a factor of ten. Read a high pIC50 as a low IC50. In turn, `C=CC(=O)Nc1cccc(Nc2nc(Nc3ccc(OCCOC)cc3)ncc2F)c1` [CC-292, reference compound] gave a pIC50 of around 7.70.
